Literature values, collected in patent US20120196828A1, “SENSITIZATION OF CANCER CELLS TO TREATMENT” (priority 2011, published 2012).

Details: See U.S. Pat. No. 7,468,358; cited from earlier work

For 2-O, 3-O desulfated heparin [ODSH], the “Induction of heparin-induced thrombocytopenia (HIT)” value is listed as “does not induce”.
